The numbers were not newly measured in patent US20250339412A1, “METHODS OF TREATING SOLID TUMOR USING (19R)-5-CHLORO-3-ETHYL-16-FLUORO-10,19-DIMETHYL-20-OXA-3,4,10,11,23-PENTAAZAPENTACYCLO[19.3.1.02,6.08,12.013,18]PENTACOSA-1(24),2(6),4,8,11,13,15,17,21(25),22-DECAEN-22-AMINE” (Nuvalent, Inc., priority 2022, published 2025), which cites them from elsewhere.

The test system of the series is ALK-positive NSCLC. Particulars: cited from earlier work.

In the case of `C[C@@H](Oc1cc(-c2cnn(C3CCNCC3)c2)cnc1N)c1c(Cl)ccc(F)c1Cl` [Crizotinib], the median progression-free survival is given as 8-11 months and the overall response rate is reported as 60-80%.
